Legend:
NSP14 MTase = NSP14 MTase (Severe acute respiratory syndrome coronavirus 2, UniProt P0DTD1); conditions: for effect of detergent concentration on potency, NSP14 MTase: 0.1% vs 0.01% Tween-20 or no detergent; for NSP14 MTase activity inhibition: dose response, highest dose tested 40 μM
[1] = target: NSP10–14 fusion (NSP14 ExoN) (Severe acute respiratory syndrome coronavirus 2, UniProt P0DTD1)
[2] = AUC of dose response, structure cluster analysis

Structure (SMILES)	effect of detergent concentration on potency, NSP14 MTase (NSP14 MTase)	NSP14 MTase activity inhibition (NSP14 MTase)	effect of detergent concentration on potency, NSP10–14 activity assay ([1]; 0.1% vs 0.01% Tween-20)	activity against ExoN [1, 2]	activity against MTase (NSP14 MTase; [2])
O=c1c2ccccc2[se]n1-c1ccccc1 [Ebselen]	increased potency with higher detergent concentrations	inhibited			
CC(=O)N1CCN(c2ccc(C(=O)N3CCN(Cc4ccccc4)CC3)nn2)C(=O)C1 [NCGC00537446]	ruled out any detergent-driven inhibition mechanism		ruled out any detergent-driven inhibition mechanism	high activity	high activity
CCC(Sc1nnc2c(n1)[nH]c1ccccc12)C(=O)N1c2ccccc2Sc2ccccc21 (stereo not drawn) [Inauzhin]		outside our assay window			
Nc1ncnc2c1ncn2[C@@H]1O[C@H](C[C@@H](N)CC[C@H](N)C(=O)O)[C@@H](O)[C@H]1O [Sinefungin]	increased potency with higher detergent concentrations				
Nc1nc(OCc2cc(Br)cs2)c2[nH]cnc2n1 [Lomeguetrib, Lomeguatrib]		outside our assay window			
